Experimental findings from patent US20230416330A1, “Optimized GIP Peptide Analogues” (Antag Therapeutics ApS, priority 2019, published 2023) are described below.

The nature of data set [1]: Physical stability: fibril formation in Thioflavin T (ThT) assay with agitation. Type of data set: physicochemical. To be noted: Na, MilliQ (8), 25° C. The protocol: Continuous measurement of the fluorescence emission at 486 nm can be used as a measure of fibrillation behavior of peptides and proteins. The time until onset of fibrillation or fibrillation lag time is estimated here by defining the lag time (Tlag) as the point in time where the signal relative to the pre-transition baseline has reached 10% of the post-transition baseline.
50 mM sodium phosphate buffer for dissolving some samples was prepared in ultrapure water (Milli-Q® Reference A+ System, Merck) with a resistivity of 18.2 MΩ·cm. The buffer was adjusted to pH 7.4 and filtered.
The ultrapure water (MilliQ) for dissolving some samples was adjusted to pH 7.4 with NaOH and filtered prior to sample preparation.
Peptides were either dissolved in sodium phosphate buffer (50 mM, pH 7.4, filtered) or dissolved in ultrapure (MilliQ) water (adjusted to pH 7.4 with NaOH, filtered) (see Table 3). All peptide samples were prepared to a concentration of 1, 5, 7.5 or 15 mg/ml. All samples, with the exception of reference peptides GIP(3-30), AT158, and AT482 dissolved readily and produced clear and colorless solutions with gentle mixing. Peptide samples were subsequently filtered through 0.22 μm nylon filters (Q-Max® RR syringe filter, 13 mm, Frisenette, DK) to produce particle-free solutions. All samples were added to a 96-well plate reader for the ThT assay at t=0. […]

The nature of data set [2]: Solubility by visual inspection of peptide solutions. In kind it is physicochemical. The following applies: Na, MilliQ (8). Here is the method:
Peptides were either dissolved in sodium phosphate buffer (50 mM, pH 7.4, filtered) or dissolved in ultrapure (MilliQ) water (adjusted to pH 7.4 with NaOH, filtered) (see Table 3). All peptide samples were prepared to a concentration of 1, 5, 7.5 or 15 mg/ml. All samples, with the exception of reference peptides GIP(3-30), AT158, and AT482 dissolved readily and produced clear and colorless solutions with gentle mixing. Peptide samples were subsequently filtered through 0.22 μm nylon filters (Q-Max® RR syringe filter, 13 mm, Frisenette, DK) to produce particle-free solutions. All samples were added to a 96-well plate reader for the ThT assay at t=0.
Clear visual appearance may be taken as an indicator of the immediate solubility of the peptide. […] Thus, A13Aib and/or N24E substitutions appear to increase solubility.

Take `CC[C@H](C)[C@H](NC(=O)[C@H](CCCCN)NC(=O)[C@H](CCC(=O)O)NC(=O)[C@H](CC(C)C)NC(=O)C(C)(C)NC(=O)[C@@H](NC(=O)[C@H](CO)NC(=O)[C@H](Cc1ccc(O)cc1)NC(=O)[C@H](CCC(=O)O)NC(=O)[C@H](CO)NC(=O)[C@@H](NC(=O)[C@H](Cc1ccccc1)NC(=O)[C@@H](NC(=O)CNC(=O)[C@@H](N)CCC(=O)O)[C@@H](C)O)[C@@H](C)CC)[C@@H](C)CC)C(=O)N[C@@H](CCCCNC(=O)[C@H](CCCCN)NC(=O)[C@H](C)NC(=O)[C@H](C)NC(=O)[C@H](C)NC(=O)[C@H](CCC(=O)O)NC(=O)[C@H](CCCCN)NC(=O)[C@H](C)NC(=O)[C@H](C)NC(=O)[C@H](C)NC(=O)[C@H](CCC(=O)O)NC(=O)[C@H](CCCCN)NC(=O)[C@H](C)NC(=O)[C@H](C)NC(=O)[C@H](C)NC(=O)[C@H](CCC(=O)O)NC(=O)CCCCCCCCCCCCCCC(=O)O)C(=O)N[C@@H](CCC(N)=O)C(=O)N[C@@H](CCC(N)=O)C(=O)N[C@@H](CCC(=O)O)C(=O)N[C@@H](Cc1ccccc1)C(=O)N[C@H](C(=O)N[C@@H](CCC(=O)O)C(=O)N[C@@H](Cc1c[nH]c2ccccc12)C(=O)N[C@@H](CC(C)C)C(=O)N[C@@H](CC(C)C)C(=O)N[C@@H](C)C(=O)N[C@@H](CCC(N)=O)C(=O)N[C@@H](CCCCN)C(=O)N1CCC[C@H]1C(=O)N[C@@H](CO)C(=O)N[C@@H](CO)C(=O)NCC(=O)N[C@@H](C)C(=O)N1CCC[C@H]1C(=O)N1CCC[C@H]1C(=O)N1CCC[C@H]1C(=O)N[C@@H](CO)C(=O)O)C(C)C` [AT724]: the “Avr lag time (h)” value in data set [1] (7.5 mg/ml) and in data set [1] (15 mg/ml) was “fnd (Fnd = fibrils not detected within experiment time (96 hours) with agitation.)” each time. In addition, the Visual appearance entry in data set [2] (7.5 mg/ml) and in data set [2] (15 mg/ml) was “Clear” each time.
